Measurements: patent publication US4594246A, “Pharmaceutically-acceptable amine salts of 6-β-halopenicillanic acids” (Leo Pharmaceutical Products, priority 1979, dated 1986)

What was measured:
Bacillus subt. KA2 = experiment: Antibacterial spectrum (Table I); details: serial dilutions in fluid medium, inoculum 10^ CFU (grampositive organism)
Coryneb. xerosis FF = experiment: Antibacterial spectrum (Table I); details: serial dilutions in fluid medium, inoculum 10^ CFU (grampositive organism)

Row | Structure (SMILES) | IC50 (Bacillus subt. KA2) [µg/mL] | IC50 (Coryneb. xerosis FF) [µg/mL]
1 | CC1(C)S[C@@H]2[C@H](I)C(=O)N2[C@H]1C(=O)O | 13 (≈ 39.7 µM) | 16 (≈ 48.9 µM)
2 | CC1(C)S[C@@H]2[C@H](Cl)C(=O)N2[C@H]1C(=O)O | 7.9 (≈ 33.5 µM) | 5.0 (≈ 21.2 µM)
3 | CC1(C)S[C@@H]2[C@H](Br)C(=O)N2[C@H]1C(=O)O | 5.0 (≈ 17.8 µM) | 5.0 (≈ 17.8 µM)

Values after ≈ are worked out from the molar mass of the structure shown.
